# US4190675A, “Method for the preparation of verbenone, myrtenal and pinocarveol and their therapeutical use” (priority 1976, dated 1980)
# Assay: in vivo
# Details: mouse, iv
structure (smiles),measurement,value
"CC1(C)C2CC=C(C=O)C1C2 (stereo not shown) [Myrtenal, myrtenal]",LD50,170 mg/kg
